# Biological target: Cruzipain (Trypanosoma cruzi) (UniProt P25779)
# The chains behind the UniProt entries cited, without tags or fusion partners. Where a name states a change or a piece, a line headed by the entry shows the natural chain unless it says otherwise.
# UniProt P25779: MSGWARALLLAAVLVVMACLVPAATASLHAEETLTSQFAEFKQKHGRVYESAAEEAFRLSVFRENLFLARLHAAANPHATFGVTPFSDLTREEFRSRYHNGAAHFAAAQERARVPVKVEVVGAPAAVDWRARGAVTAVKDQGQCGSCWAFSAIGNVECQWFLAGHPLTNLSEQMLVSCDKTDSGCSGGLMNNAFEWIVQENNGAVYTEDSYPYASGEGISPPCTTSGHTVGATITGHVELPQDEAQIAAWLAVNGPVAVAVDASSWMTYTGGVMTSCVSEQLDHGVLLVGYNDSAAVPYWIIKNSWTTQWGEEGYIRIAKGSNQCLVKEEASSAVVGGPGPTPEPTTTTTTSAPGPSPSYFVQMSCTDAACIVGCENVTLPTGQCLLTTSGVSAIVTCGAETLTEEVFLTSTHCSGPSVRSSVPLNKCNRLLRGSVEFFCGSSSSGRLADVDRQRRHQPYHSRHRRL
# Assay: Time dependent inhibition of Trypanosoma cruzi cruzain using Cbz-Phe-Arg-AMC as substrate assessed as association rate constant for EI complex measured over 30 mins
smiles,measurement,value
CN1CCN(C(=O)N[C@@H](Cc2ccccc2)C(=O)N[C@H]2Cc3ccccc3OC2O)CC1 (stereo partly specified),Ka,1.8 10^-4/s
